Literature values, collected in US20100135905A1, “ASSESSMENT OF CANCER SUSCEPTIBILITY TO MOLECULAR TARGETED THERAPY BY USE OF RECOMBINANT PEPTIDES” (priority 2004, published 2010).

Chains of the proteins cited; added tags and fusions are not shown. Residues count along the entry.
UniProt P09619, 33-1106, species assumed: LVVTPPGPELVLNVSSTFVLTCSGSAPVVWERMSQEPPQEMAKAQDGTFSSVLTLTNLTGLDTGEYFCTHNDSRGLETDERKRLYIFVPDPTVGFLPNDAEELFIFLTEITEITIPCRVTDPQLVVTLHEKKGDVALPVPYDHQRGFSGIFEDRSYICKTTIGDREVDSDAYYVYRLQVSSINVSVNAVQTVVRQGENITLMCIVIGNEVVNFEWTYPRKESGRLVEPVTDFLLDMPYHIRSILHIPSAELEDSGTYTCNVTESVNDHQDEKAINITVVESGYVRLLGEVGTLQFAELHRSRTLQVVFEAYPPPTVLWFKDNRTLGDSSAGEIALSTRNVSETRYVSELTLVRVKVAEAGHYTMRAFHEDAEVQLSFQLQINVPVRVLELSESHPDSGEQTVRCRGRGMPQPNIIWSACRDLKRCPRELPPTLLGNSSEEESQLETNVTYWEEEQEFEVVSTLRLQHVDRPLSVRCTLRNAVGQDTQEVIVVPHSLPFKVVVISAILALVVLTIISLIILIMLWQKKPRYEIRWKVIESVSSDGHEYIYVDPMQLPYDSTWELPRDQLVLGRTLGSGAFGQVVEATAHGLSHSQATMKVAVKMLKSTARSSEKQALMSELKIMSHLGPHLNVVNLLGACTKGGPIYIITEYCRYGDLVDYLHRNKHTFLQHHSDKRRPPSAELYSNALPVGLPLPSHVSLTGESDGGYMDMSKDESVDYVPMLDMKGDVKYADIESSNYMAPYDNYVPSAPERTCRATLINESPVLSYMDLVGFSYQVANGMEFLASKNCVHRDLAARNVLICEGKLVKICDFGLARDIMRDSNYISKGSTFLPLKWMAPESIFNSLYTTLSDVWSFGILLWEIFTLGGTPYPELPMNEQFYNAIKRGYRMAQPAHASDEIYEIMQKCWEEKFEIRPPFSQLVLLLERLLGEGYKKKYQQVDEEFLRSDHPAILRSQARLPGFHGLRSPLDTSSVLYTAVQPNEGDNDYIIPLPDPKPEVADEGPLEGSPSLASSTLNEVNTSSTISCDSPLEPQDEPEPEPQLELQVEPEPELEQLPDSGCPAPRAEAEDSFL

Target: PDGFRβ (Homo sapiens, UniProt P09619)
Details: biochemical and cellular assays; cited from earlier work

Compound: CCN(CC)CCNC(=O)c1c(C)[nH]c(/C=C2\C(=O)Nc3ccc(F)cc32)c1C [SU11248]
- Inhibition of PDGFRβ: low nM
